This is an account of results in US8748375B2 (Amylin Pharmaceuticals, LLC, priority 2009, dated 2014).

Structures are written as SMILES.

For assay [1], the system named is insulin-stimulated glycogen synthesis in soleus muscle. Nature of the assay: Soleus Muscle Assay. Type of assay: cell-based, rat. The protocol: Concentrations of peptide dissolved in carrier-free buffers are determined by quantitative amino acid analysis, as described therein. The ability of compounds to act as agonists in this assay is determined by measuring EC50 values. […] Similar results were obtained with other agonist compounds listed above.

Another assay has as its target T1, amylin receptors (Rattus norvegicus, UniProt P32214+Q9JJ74).
T1 construct: This basal forebrain tissue, containing the nucleus accumbens and surrounding regions, was weighed and homogenized; from tissue; host or cells: rat basal forebrain (nucleus accumbens and surrounding regions) membranes
T1 sequence (P32214 25-516): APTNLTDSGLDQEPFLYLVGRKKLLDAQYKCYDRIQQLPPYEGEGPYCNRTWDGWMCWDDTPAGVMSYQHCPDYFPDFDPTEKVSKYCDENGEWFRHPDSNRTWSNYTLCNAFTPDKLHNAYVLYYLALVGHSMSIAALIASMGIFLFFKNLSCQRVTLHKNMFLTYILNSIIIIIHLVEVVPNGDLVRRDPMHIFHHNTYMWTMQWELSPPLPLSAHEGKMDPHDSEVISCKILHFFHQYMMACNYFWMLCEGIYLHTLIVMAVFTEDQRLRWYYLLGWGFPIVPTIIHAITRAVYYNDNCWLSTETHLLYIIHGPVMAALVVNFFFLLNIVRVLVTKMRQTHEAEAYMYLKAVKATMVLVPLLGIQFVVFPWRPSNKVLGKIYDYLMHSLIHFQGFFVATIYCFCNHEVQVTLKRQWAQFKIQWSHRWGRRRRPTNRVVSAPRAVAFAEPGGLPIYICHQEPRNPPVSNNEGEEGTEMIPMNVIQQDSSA
T1 sequence (Q9JJ74 27-148): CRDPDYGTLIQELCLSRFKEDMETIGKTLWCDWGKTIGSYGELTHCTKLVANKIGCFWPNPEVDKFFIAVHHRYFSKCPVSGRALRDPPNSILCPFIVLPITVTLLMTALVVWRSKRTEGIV
The assay is described as follows: Receptor Binding Assay. From the text: A preferred source of the membrane preparations used in the assay is the basal forebrain which comprises membranes from the nucleus accumbens and surrounding regions.
Unlabeled peptides were obtained from BACHEM Inc. (Torrance, Calif.) and Peninsula Laboratories (Belmont, Calif.).
Male Sprague-Dawley rats (200-250) grams were sacrificed by decapitation. Brains were removed to cold phosphate-buffered saline (PBS). From the ventral surface, cuts were made rostral to the hypothalamus, bounded laterally by the olfactory tracts and extending at a 45° angle medially from these tracts. This basal forebrain tissue, containing the nucleus accumbens and surrounding regions, was weighed and homogenized in ice-cold 20 mM HEPES buffer (20 mM HEPES acid, pH adjusted to 7.4 with NaOH at 23° C.). […] The final membrane pellet was resuspended in 20 mM HEPES buffer containing 0.2 mM phenylmethylsulfonyl fluoride (PMSF).
Solutions were incubated for 60 minutes at 23° C. […] Filters were washed immediately before filtration with 5 ml cold PBS, and immediately after filtration with 15 ml cold PBS.

On to `CC[C@H](C)[C@H](NC(=O)[C@@H]1CCCN1C(=O)CNC(=O)[C@H](Cc1ccccc1)NC(=O)[C@H](CC(N)=O)NC(=O)[C@H](CC(N)=O)NC(=O)[C@H](CO)NC(=O)[C@H](CO)NC(=O)[C@H](CCCNC(=N)N)NC(=O)[C@@H](NC(=O)[C@H](CC(C)C)NC(=O)[C@H](Cc1ccccc1)NC(=O)[C@H](CC(N)=O)NC(=O)[C@H](C)NC(=O)[C@H](CC(C)C)NC(=O)[C@H](CCCNC(=N)N)NC(=O)[C@H](CCC(N)=O)NC(=O)[C@@H](NC(=O)[C@H](C)NC(=O)[C@@H]1CSSC[C@H](N)C(=O)N[C@@H](CC(N)=O)C(=O)N[C@@H]([C@@H](C)O)C(=O)N[C@@H](C)C(=O)N[C@@H]([C@@H](C)O)C(=O)N1)[C@@H](C)O)C(C)C)C(=O)N[C@@H](CC(C)C)C(=O)N1CCC[C@H]1C(=O)N[C@@H](CO)C(=O)N[C@H](C(=O)N[C@@H](CC(N)=O)C(=O)N[C@H](C(=O)NCC(=O)N[C@@H](CO)C(=O)N[C@@H](CC(N)=O)C(=O)N[C@H](C(=O)N[C@@H](Cc1ccc(O)cc1)C(N)=O)[C@@H](C)O)C(C)C)[C@@H](C)O` [des-^1Lys^18Arg^25, 28Pro-h-Amylin], for which, in assay [1], the “amylin agonist activity (in words)” value is reported as “act as amylin agonists” and the “antagonist activity in soleus muscle assay (in words)” value was “negligible antagonist activity”. Moreover, the “receptor binding activity (in words)” value on amylin receptors is reported as “compete with amylin”.

`CC[C@H](C)[C@H](NC(=O)[C@@H]1CCCN1C(=O)CNC(=O)[C@H](Cc1ccccc1)NC(=O)[C@H](CC(N)=O)NC(=O)[C@H](CC(N)=O)NC(=O)[C@H](CO)NC(=O)[C@H](CO)NC(=O)[C@H](Cc1c[nH]cn1)NC(=O)[C@@H](NC(=O)[C@H](CC(C)C)NC(=O)[C@H](Cc1ccccc1)NC(=O)[C@H](CC(N)=O)NC(=O)[C@H](C)NC(=O)[C@H](CC(C)C)NC(=O)[C@H](CCCNC(=N)N)NC(=O)[C@H](CCC(N)=O)NC(=O)[C@@H](NC(=O)[C@H](C)NC(=O)[C@@H]1CSSC[C@H](N)C(=O)N[C@@H](CC(N)=O)C(=O)N[C@@H]([C@@H](C)O)C(=O)N[C@@H](C)C(=O)N[C@@H]([C@@H](C)O)C(=O)N1)[C@@H](C)O)C(C)C)C(=O)N[C@@H](CC(C)C)C(=O)N1CCC[C@H]1C(=O)N1CCC[C@H]1C(=O)N[C@H](C(=O)N[C@@H](CC(N)=O)C(=O)N[C@H](C(=O)NCC(=O)N[C@@H](CO)C(=O)N[C@@H](CC(N)=O)C(=O)N[C@H](C(=O)N[C@@H](Cc1ccc(O)cc1)C(N)=O)[C@@H](C)O)C(C)C)[C@@H](C)O` [des-^1Lys^25, 28, 29Pro-h-Amylin]: in assay [1], the “amylin agonist activity (in words)” value is recorded as “act as amylin agonists” and the “antagonist activity in soleus muscle assay (in words)” value is given as “negligible antagonist activity”. In addition, the “receptor binding activity (in words)” value on amylin receptors was “compete with amylin”.
